In assay [1] the target is Human full length Arpin (residues 1-226), purified from E. coli, cleaved off GST by TEV protease (human) (UniProt Q7Z6K5). The experiment in a line: SEC-MALS of the mixture of Arpin and Rac1 loaded with GDP; alone: Arpin 26290 ± 140, Rac1-GDP 28180 ± 170 [table]. A general note: Size exclusion chromatography separates by hydrodynamic size, large species first.
Assay [2] has the same target. The experiment in a line: SEC-MALS of the mixture of Arpin and Rac1 loaded with GTPγS; alone: Arpin 26290 ± 140, Rac1-GTPγS 28390 ± 150 [table].

With “Untagged Rac1 purified from E. coli, loaded with GDP or GTPγS (from UniProt P63000 1-192)”, the Measured mass (g/mol) of the mixture came out at 27000 g/mol in assay [1] and 26800 g/mol in assay [2].
